Measurements reported in patent publication US8318635B2, “Phytotoxicity controlling agent for upland farming and phytotoxicity controlling method using the same” (priority 2006, dated 2012).

What was measured:
Test in all cases: Visual growth study, phytotoxicity index, chemicals scattered on the next day after sowing
Conditions in all cases: treated next day after sowing, 26 days after treatment, 0 = no growth inhibition, 100 = full dying, 4-(tert-butyl)benzoic acid 1000 g ai/ha in Examples, 0 in Comparative Examples, herbicide dose per label
[1] = system: adzuki bean (Dainagon)
Method: (§1) A wettable powder containing 10% of 4-(tert-butyl)benzoic acid was prepared by blending pulverization of 10 parts of 4-(tert-butyl)benzoic acid, 2 parts of a sodium salt of naphthalenesulfonic acid-formalin condensation product, 2 parts of a polyoxyethylene alkyl ether, 30 parts of diatomaceous earth and 56 parts of clay by using a high-speed air-jet pulverizer.
(§2) These containers were each kept standing in a water vat and water supply for pooling was introduced through the hole opening at the bottom of the water vat.
(§3) For comparison, on the other hand, evaluation was made by conducting growth studies by growing sweet corn, wheat, dry-paddy rice, sorghum, soybean, adzuki bean and rapeseed under the same conditions as in the Examples excepting for the omission of scattering of 4-(tert-butyl)benzoic acid.

[2] = system: sweet corn (Delicious 100)
Method: as §1, §2, §3

[3] = system: soybean (Fukuyutaka)
Method: as §1, §2, §3

[4] = system: dry-paddy rice (Labell)
Method: as §1, §2, §3

[5] = system: wheat (Brigadier)
Method: as §1, §2, §3

[6] = system: rapeseed
Method: as §1, §2, §3

With CC(C)C1(C)N=C(c2nc3ccccc3cc2C(=O)O)NC1=O (stereo not drawn) [compound 12, Imazaquin ammonium salt] the Phytotoxicity index [1] was 38.

Molecule CC(C)C1(C)N=C(c2nc3ccccc3cc2C(=O)O)NC1=O (stereo not drawn) [compound 1, Imazaquin ammonium salt] has a Phytotoxicity index [2] of 23.

CC(C)C1(C)N=C(c2nc3ccccc3cc2C(=O)O)NC1=O (stereo not drawn) [compound 9, Imazaquin ammonium salt] gave a Phytotoxicity index [3] of 15.

Work on CC(C)C1(C)N=C(c2nc3ccccc3cc2C(=O)O)NC1=O (stereo not drawn) [compound 6, Imazaquin ammonium salt] yielded a Phytotoxicity index [4] of 50.

For CC(C)C1(C)N=C(c2nc3ccccc3cc2C(=O)O)NC1=O (stereo not drawn) [compound 5, Imazaquin ammonium salt], the Phytotoxicity index [5] was 30.

In the case of CC(C)C1(C)N=C(c2nc3ccccc3cc2C(=O)O)NC1=O (stereo not drawn) [compound 13, Imazaquin ammonium salt], the Phytotoxicity index [6] is reported as 50.

Counter-ions that a name gives are not always drawn.
